The test system of the experiment is Cabbage. In words: Cabbage shoot dry weight after foliar treatment with glycan composite components. Conditions: cabbage shoots, foliar 10 ml/flat, dissolved in Metals^2+ solution, n=36; Metals^2+ control 0.56. The experiment is classed as in vivo.

On to `O=C([O-])CCC(=O)C(=O)[O-].[K+].[K+]` [aKG, potassium α-ketoglutarate], for which the “Mean dry weight, Gram” value came to 0.59 Gram.

The record behind these values is US11968978B2, “Formulations and methods for treating photosynthetic organisms and enhancing qualities and quantities of yields with glycan composite formulations” (Innovation Hammer LLC, priority 2016, dated 2024).
